In PubChem BioAssay AID2283145 (EPA ToxCast):
Listed are the inconclusive results; actives and inactives stand elsewhere. How the source made its calls: active means hit-call score of the fitted dose curve at least 0.9, where 1 is the maximum; inconclusive means response in the unintended direction; inactive means score below 0.9.

Sequences of proteins named here, by UniProt entry; tags and fusion partners are left off.
UniProt Q00534, whole entry, looked up: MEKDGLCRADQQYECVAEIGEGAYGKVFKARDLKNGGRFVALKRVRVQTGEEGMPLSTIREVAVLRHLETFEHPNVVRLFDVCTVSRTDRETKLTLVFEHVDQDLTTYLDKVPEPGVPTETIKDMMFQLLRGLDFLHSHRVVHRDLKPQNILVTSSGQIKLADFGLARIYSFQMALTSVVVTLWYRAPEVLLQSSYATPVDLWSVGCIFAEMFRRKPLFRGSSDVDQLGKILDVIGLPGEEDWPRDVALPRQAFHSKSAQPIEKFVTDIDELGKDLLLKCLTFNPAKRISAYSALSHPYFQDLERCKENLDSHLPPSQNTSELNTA

The compounds below were run against human Cyclin-Dependent Kinase 6 (CDK6), CDK6 (gene 1021) (UniProt Q00534) (assay: NVS_ENZ_hCDK6: NovaScreen (NVS) Enzymatic Assay for human Cyclin-Dependent Kinase 6 (CDK6)).
Experimental: NVS_ENZ_hCDK6 is a biochemical, single-readout assay that uses extracted gene-proteins in a cell-free assay. Measurements were taken 1 hour after chemical dosing in a 384-well plate.NVS_ENZ_hCDK6 is one of one assay component(s) measured or calculated from the NVS_ENZ_hCDK6 assay. It is designed to make measurements of enzyme activity, a form of enzyme reporter, as detected with fluorescence intensity signals by Fluorescence and electrophoretic mobility shift technology.Data from the assay component NVS_ENZ_hCDK6 was analyzed into 1 assay endpoint. This assay endpoint, NVS_ENZ_hCDK6, was analyzed in the positive analysis fitting direction relative to DMSO as the negative control and baseline of activity. Using a type of enzyme reporter, loss-of-signal activity can be used to understand changes in the enzymatic activity as they relate to the gene CDK6. Furthermore, this assay endpoint can be referred to as a primary readout, because this assay has produced multiple assay endpoints where this one serves a enzymatic activity function. To generalize the intended target to other relatable targets, this assay endpoint is annotated to the kinase intended target family, where the subfamily is serine/threonine kinase. […]
For `CC(C)OP(=S)(OC(C)C)SCCNS(=O)(=O)c1ccccc1`, the AC50 was inconclusive: 25 µM.
